Assay results taken from patent US10202340B2, “Glucosylceramide synthase inhibitors and therapeutic methods using the same” (THE REGENTS OF THE UNIVERSITY OF MICHIGAN, priority 2015, dated 2019).

Protein sequences, listed by entry. Tags and fused reporters are not part of them. Residues count along the entry.
UniProt A0A8I3MXG6, 1-394: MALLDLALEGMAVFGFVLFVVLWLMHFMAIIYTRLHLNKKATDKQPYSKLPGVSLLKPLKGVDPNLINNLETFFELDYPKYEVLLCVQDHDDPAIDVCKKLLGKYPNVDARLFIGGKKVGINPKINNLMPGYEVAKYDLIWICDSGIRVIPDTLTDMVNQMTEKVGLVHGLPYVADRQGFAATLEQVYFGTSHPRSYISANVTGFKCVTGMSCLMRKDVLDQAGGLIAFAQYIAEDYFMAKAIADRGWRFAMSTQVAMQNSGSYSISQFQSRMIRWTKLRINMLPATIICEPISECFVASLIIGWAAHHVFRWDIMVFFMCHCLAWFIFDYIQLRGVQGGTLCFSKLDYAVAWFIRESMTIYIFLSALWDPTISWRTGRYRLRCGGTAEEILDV

Key:
[1] = target: glucosylceramide synthase (GCS) (Canis lupus familiaris, UniProt A0A8I3MXG6); experiment: GCS activity, broken cell assay (inhibition of GlcCer synthesis in broken wild-type MDCK cell preparations); assay type: biochemical, canine; details: mean of n > 2 experiments
Description: Enzyme activity was measured as described previously (9). Madin-Darby canine kidney (MDCK) cell homogenates (120 μg of protein) were incubated with uridine diphosphate-[^3H]glucose (100,000 cpm) and liposomes consisting of 85 μg of octanoylsphingosine, 570 μg of dioleoylphosphatidylcholine, and 100 μg of sodium sulfatide in a 200 μL reaction mixture and kept for 1 h at 37° C.

[2] = target: GCS in WT-MDCKII cells (Canis lupus familiaris, UniProt A0A8I3MXG6); experiment: Inhibition of GlcCer production in whole wild-type MDCKII cells; assay type: cell-based, canine; details: 24 hours, read-out: WT-MDCK IC50
Description: (§1) Parental (WT-)MDCKII cells and MDCKII cells retrovirally transduced with human MDR-1 cDNA were obtained from the Netherlands Cancer Institute. Both cell lines were routinely maintained in medium consisting of Opti-MEM/F12 (1:1), 5% FBS, 100 U/mL of penicillin, 100 μg/mL streptomycin and […] L-glutamine. MDCKII cells were newly thawed from frozen ampules every two months.
(§2) Stock solutions of water-insoluble glycosphingolipid inhibitors (100 mM) were prepared by dissolving each inhibitor into 100% ethanol as previously described (3). The inhibitor-ethanol solutions then were diluted 50× into 2 mM delipidated bovine serum albumin-phosphate buffered saline solution to make water-soluble glycosphingolipid inhibitor-bovine serum albumin complexes. The inhibitor-bovine serum album complexes were sterile-filtered and stored at −20° C. Prior to use, portions of the inhibitor-bovine serum albumin complexes were further diluted with Opti-F12 to make treatment solutions. Equal amounts of bovine serum albumin and ethanol were added into the control cultures. WT and MDR1-MDCKII cells (5×10^5) were seeded into 10-cm culture dishes containing 10 ml of Opti-F12 with 5% FBS.
(§3) Following inhibitor treatment, whole cellular lipids of wild type and MDR1-MDCKII cells were extracted as previously described in detail (10). Briefly, cells were washed with ice-cold phosphate buffered saline, fixed by methanol, and collected with rubber scraper. Chloroform was then added to yield a theoretical ratio of chloroform:methanol:water at 1:2:0.8 (v/v/v) to form a mono-phase. Cell debris and proteins were removed by centrifugation at 2200×g for 30 min. The supernatants were portioned by adding chloroform and 0.9% NaCl. The lower organic phases containing neutral glycosphingolipids lipids were washed with methanol and 0.9% NaCl, and subjected to base- and acid-hydrolysis (10). A portion of purified glycosphingolipids normalized to 100 nmol of total phospholipids was analyzed by high performance thin layer chromatography. The thin layer chromatography separations were processed twice. The plate pretreated with 1% sodium borate was first developed in a solvent system consisting of chloroform/methanol (98/2, v/v). After air drying, the plate was then developed in a solvent system containing chloroform/methanol/water (70/30/4, v/v/v). The levels of glucosylceramide were detected by charring with 8% cupric sulfate in 8% phosphoric acid, and quantified by densitometric scanning using ImageJ, NIH Image.

[3] = target: GCS in MDR1-MDCKII cells (Canis lupus familiaris, UniProt A0A8I3MXG6); details: read-out: MDR1-MDCKII IC50; MDCKII cells stably expressing human MDR1, 24 hours
Description: as §1, §2, §3

SMILES | IC50 [1] [nM] | IC50 [2] [nM] | IC50 [3] [nM]
COc1ccc([C@@H](O)[C@@H](CN2CCCC2)NC(=O)CC2Cc3ccccc3C2)cc1F [Example 1, 2-(2,3-dihydro-1H-inden-2-yl)-N-((1R,2R)-1-(3-fluoro-4-methoxyphenyl)-1-hydroxy-3-(pyrrolidin-1-yl)propan-2-yl)acetamide] | 27 | 3 | 9.4
COc1ccc([C@@H](O)[C@@H](CN2CCCC2)NC(=O)CC2Cc3ccccc3C2)cc1 [Example 2, 2-(2,3-dihydro-1H-inden-2-yl)-N-((1R,2R)-1-hydroxy-1-(4-methoxyphenyl)-3-(pyrrolidin-1-yl)propan-2-yl)acetamide] | 48 | 3 | 15
COc1cccc([C@@H](O)[C@@H](CN2CCCC2)NC(=O)CC2Cc3ccccc3C2)c1 [Example 3, 2-(2,3-dihydro-1H-inden-2-yl)-N-((1R,2R)-1-hydroxy-1-(3-methoxyphenyl)-3-(pyrrolidin-1-yl)propan-2-yl)acetamide] | 54 | 5 | 27
COc1cc([C@@H](O)[C@@H](CN2CCCC2)NC(=O)CC2Cc3ccccc3C2)ccc1F [Example 5, 2-(2,3-dihydro-1H-inden-2-yl)-N-((1R,2R)-1-(4-fluoro-3-methoxyphenyl)-1-hydroxy-3-(pyrrolidin-1-yl)propan-2-yl)acetamide] |  | 73 | 2610
COc1ccc([C@@H](O)[C@@H](CN2CCCC2)NC(=O)CC2CCc3ccccc3C2)cc1 (stereo partly drawn) [Example 6, N-((1R,2R)-1-hydroxy-1-(4-methoxyphenyl)-3-(pyrrolidin-1-yl)propan-2-yl)-2-(1,2,3,4-tetrahydronaphthalen-2-yl)acetamide] | 269 | 11 | 45
O=C(CC1Cc2ccccc2C1)N[C@H](CN1CCCC1)[C@H](O)c1ccc(OC(F)(F)F)cc1 [Example 7, 2-(2,3-dihydro-1H-inden-2-yl)-N-((1R,2R)-1-hydroxy-3-(pyrrolidin-1-yl)-1-(4-(trifluoromethoxy)phenyl)propan-2-yl)acetamide] | 232 | 4 | 11
O=C(CC1Cc2ccccc2C1)N[C@H](CN1CCCC1)[C@H](O)c1ccc(C(F)(F)F)cc1 [Example 8, 2-(2,3-dihydro-1H-inden-2-yl)-N-((1R,2R)-1-hydroxy-3-(pyrrolidin-1-yl)-1-(4-(trifluoromethyl)phenyl)propan-2-yl)acetamide] |  | 35 | 55
O=C(CC1Cc2ccccc2C1)N[C@H](CN1CCCC1)[C@H](O)c1ccc(OC(F)F)cc1 [Example 9, N-((1R,2R)-1-(4-(difluoromethoxy)phenyl)-1-hydroxy-3-(pyrrolidin-1-yl)propan-2-yl)-2-(2,3-dihydro-1H-inden-2-yl)acetamide] | 123 | 10 | 17
O=C(CC1Cc2ccccc2C1)N[C@H](CN1CCCC1)[C@H](O)c1ccc(OCC(F)(F)F)cc1 [Example 12, 2-(2,3-dihydro-1H-inden-2-yl)-N-((1R,2R)-1-hydroxy-3-(pyrrolidin-1-yl)-1-(4-(2,2,2-trifluoroethoxy)phenyl)propan-2-yl)acetamide] | 56 | 0.87 | 2.5
COc1ccc([C@@H](O)[C@@H](CN2CCCC2)NC(=O)CC2CCCc3ccccc32)cc1 (stereo partly drawn) [Example 13, N-((1R,2R)-1-hydroxy-1-(4-methoxyphenyl)-3-(pyrrolidin-1-yl)propan-2-yl)-2-(1,2,3,4-tetrahydronaphthalen-1-yl)acetamide] | 270 | 11 | 45
O=C(CC1Cc2ccccc2C1)N[C@H](CN1CCC1)[C@H](O)c1ccc(OC(F)(F)F)cc1 [Example 17, N-((1R,2R)-3-(azetidin-1-yl)-1-hydroxy-1-(4-(trifluoromethoxy)phenyl)propan-2-yl)-2-(2,3-dihydro-1H-inden-2-yl)acetamide] |  | 24 | 41
